# Measurements published in publication PMC8802302 (Journal of Medicinal Chemistry, 2021).
# Protein sequences, listed by entry. Tags and fused reporters are not part of them. Lines headed by an entry give the natural chain unless they say otherwise; changes in a name come on top.
# UniProt Q5S007: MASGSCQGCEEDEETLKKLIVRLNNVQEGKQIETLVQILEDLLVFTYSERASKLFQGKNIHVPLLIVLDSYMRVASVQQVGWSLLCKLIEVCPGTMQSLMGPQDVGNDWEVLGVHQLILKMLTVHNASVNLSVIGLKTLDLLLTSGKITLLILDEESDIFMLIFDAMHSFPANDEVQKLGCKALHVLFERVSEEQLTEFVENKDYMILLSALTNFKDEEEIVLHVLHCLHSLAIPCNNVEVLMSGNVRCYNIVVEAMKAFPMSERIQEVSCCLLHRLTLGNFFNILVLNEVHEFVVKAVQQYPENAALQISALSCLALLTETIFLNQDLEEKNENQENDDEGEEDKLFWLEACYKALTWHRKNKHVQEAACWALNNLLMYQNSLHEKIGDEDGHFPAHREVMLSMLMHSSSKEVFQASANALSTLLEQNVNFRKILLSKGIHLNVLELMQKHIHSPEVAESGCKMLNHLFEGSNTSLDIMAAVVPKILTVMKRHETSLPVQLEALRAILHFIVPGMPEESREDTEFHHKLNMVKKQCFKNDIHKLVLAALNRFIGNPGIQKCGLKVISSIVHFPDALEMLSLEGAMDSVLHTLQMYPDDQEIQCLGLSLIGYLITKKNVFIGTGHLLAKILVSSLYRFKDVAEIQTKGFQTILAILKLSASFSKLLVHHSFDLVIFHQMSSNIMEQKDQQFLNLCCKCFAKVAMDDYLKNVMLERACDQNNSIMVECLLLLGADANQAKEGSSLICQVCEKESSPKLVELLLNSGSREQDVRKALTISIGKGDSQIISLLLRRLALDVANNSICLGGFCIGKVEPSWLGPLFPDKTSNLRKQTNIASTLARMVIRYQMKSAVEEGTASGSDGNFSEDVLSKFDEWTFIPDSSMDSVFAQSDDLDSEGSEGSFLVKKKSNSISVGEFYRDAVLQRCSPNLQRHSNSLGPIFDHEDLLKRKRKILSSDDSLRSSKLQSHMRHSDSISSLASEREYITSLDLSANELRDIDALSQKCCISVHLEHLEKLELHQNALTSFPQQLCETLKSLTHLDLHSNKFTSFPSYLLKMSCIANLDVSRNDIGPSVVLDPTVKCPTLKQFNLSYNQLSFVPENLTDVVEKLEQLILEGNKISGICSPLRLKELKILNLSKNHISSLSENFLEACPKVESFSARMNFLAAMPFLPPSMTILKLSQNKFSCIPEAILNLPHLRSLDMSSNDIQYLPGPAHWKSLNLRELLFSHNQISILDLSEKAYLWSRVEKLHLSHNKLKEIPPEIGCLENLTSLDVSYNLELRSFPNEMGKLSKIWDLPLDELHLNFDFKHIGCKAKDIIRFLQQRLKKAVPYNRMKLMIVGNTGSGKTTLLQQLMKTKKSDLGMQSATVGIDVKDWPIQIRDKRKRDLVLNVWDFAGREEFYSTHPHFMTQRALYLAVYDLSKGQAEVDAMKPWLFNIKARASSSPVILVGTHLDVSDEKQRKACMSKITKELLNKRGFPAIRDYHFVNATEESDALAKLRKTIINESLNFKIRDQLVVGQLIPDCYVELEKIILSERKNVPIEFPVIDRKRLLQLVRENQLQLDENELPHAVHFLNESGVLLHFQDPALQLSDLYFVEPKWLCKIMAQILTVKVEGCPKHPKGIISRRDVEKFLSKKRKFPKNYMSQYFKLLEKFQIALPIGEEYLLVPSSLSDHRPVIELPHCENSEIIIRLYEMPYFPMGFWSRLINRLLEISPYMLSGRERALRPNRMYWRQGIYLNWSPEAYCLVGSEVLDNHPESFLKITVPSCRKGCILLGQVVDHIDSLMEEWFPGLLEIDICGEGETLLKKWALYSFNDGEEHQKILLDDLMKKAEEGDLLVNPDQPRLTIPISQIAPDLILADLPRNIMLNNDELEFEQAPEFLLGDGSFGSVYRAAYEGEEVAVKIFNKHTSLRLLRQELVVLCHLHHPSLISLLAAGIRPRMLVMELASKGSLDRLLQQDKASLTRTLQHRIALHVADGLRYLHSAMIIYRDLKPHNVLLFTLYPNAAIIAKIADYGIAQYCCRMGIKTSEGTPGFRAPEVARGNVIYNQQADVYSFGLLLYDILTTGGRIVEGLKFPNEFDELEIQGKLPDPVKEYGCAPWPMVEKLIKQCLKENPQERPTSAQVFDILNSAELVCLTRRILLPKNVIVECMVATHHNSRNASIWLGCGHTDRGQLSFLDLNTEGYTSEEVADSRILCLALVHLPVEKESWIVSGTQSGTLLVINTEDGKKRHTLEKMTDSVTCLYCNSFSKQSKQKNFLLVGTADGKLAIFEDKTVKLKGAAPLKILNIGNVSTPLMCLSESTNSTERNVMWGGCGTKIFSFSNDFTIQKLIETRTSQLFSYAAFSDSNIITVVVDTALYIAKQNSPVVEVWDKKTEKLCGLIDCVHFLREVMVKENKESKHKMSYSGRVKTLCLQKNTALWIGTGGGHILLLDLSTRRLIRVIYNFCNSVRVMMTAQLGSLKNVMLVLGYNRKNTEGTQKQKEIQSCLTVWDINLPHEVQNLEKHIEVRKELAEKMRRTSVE
# UniProt Q9UHD2: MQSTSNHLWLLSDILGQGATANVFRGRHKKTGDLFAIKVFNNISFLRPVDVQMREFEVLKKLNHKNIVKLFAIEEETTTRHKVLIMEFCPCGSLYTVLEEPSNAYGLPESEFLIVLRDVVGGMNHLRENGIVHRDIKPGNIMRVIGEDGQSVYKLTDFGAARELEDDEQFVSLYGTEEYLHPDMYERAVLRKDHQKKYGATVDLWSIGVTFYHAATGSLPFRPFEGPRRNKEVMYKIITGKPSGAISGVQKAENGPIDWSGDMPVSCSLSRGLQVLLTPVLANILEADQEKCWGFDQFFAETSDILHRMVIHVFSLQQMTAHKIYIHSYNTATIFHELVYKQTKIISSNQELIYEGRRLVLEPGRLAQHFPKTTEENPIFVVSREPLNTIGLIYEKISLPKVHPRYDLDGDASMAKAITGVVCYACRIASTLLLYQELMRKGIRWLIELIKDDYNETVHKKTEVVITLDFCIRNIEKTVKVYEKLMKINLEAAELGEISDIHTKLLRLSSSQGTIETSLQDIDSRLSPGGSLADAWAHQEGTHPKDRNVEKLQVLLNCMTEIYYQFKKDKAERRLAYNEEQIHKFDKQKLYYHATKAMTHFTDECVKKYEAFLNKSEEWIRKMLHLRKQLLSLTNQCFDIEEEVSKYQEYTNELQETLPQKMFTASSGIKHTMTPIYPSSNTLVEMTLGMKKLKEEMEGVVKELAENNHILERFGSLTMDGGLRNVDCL
# Columns and labels:
# LRRK2 = LRRK2 (Homo sapiens, UniProt Q5S007); test: NanoBRET assay follow-up; assay type: cell-based; conditions: singlicate (n = 1) dose–response
# TBK1 (NLuc-TBK1) = TBK1 (NLuc-TBK1) (Homo sapiens, UniProt Q9UHD2); test: NanoBRET cellular target engagement assay; assay type: cell-based
# Outline: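 HEK293 cells were grown in DMEM with 10% FBS at 37 °C under 5% CO2, passaged every 72 h with trypsin and kept below confluency. Cells expressed NanoLuc fusions (DRAK1-NLuc or NLuc-TBK1). Dose–response was run per the manufacturer's protocol, with 0.5 μM tracer K-9 for DRAK1 and 0.5 μM tracer K-5 for TBK1. SEM was reported where assays were repeated.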
structure (smiles),measurement,setting,value
"Cc1nn(CC(F)(F)F)cc1Nc1ncc(Br)c(NCc2ccc(S(N)(=O)=O)cc2)n1 [GSK8612, 4-(((5-Bromo-2-((3-methyl-1-(2,2,2-trifluoroethyl)-1H-pyrazol-4-yl)amino)pyrimidin-4-yl)-amino)methyl)benzenesulfonamide, reference compound]",LRRK2 NanoBRET IC50,LRRK2,did not have any activity
same,"fold loss in potency, enzymatic versus NanoBRET, TBK1",TBK1 (NLuc-TBK1),< 10 fold
